Earlier results in patent US20240091148A1, “EUTECTIC SOLVENTS COMPRISING PHARMACEUTICAL AGENTS, AND METHODS OF MAKING AND USE THEREOF” (Novilla Pharmaceuticals, Inc., priority 2018, published 2024).

Conditions: values stated in the description, no method or source given

pKa: 9.3-9.4
Compound: CN(C)CCC(c1ccccc1)c1ccccn1 (stereo not shown) [pheniramine]
